Data reported in patent publication US20250073302A1, “CYCLIC PEPTIDES AS PROTEASOME STIMULATORS” (Purdue Research Foundation, priority 2023, published 2025).

Tested on: A549 cells
Details: 15 μM CyPPS26, A549 cells, LysoTracker, 1.5 hours, confocal microscopy

Substance: TXFFRA [CyPPS26, TXFFRA [SEQ ID NO: 26]]
- cell permeability and mechanism of cell uptake: Endosomal uptake was confirmed
